Target: T1, DPP-IV from pig kidney (Sus scrofa, UniProt P22411)
T1 construct: The enzyme used is DPP-IV from pig kidney; purchased Sigma D7052; host or cells: pig kidney
Assay: In-vitro determination of the inhibition of DPP-IV by synthetic peptides (Example 14)
Type: biochemical
Details: Table 13; substrate Gly-L-Pro-p-nitroanilide, pH 8.0, 37° C.; read-out: inhibitory activity of DPP-IV (IC50)
Protocol: The inhibitory activity of synthetic peptides can be measured in vitro according to the following protocol:
25 μl of the substrate Gly-L-Pro-p-nitroanilide in 0.1 M Tris-HCL buffer (pH 8.0) at 1.6 mM is mixed with 25 μl of the peptide sample or of reference inhibitor at different concentrations. The samples are solubilized beforehand in Tris HCL buffer (pH8.0).
The reaction medium is incubated for 60 min at 37° C. and then the reaction is stopped by adding 100 μl of 1M sodium acetate buffer (pH4).
The quantity of product formed (p-nitroanilide) is measured by reading the absorbance at 385 nm using the Fluostar Omega spectrophotometer (BMG Labtech, Germany).
All the inhibition tests are carried out in triplicate.
The substrate used is Gly-L-Pro-p-nitroanilide hydrochloride (available from Sigma under reference G0513).
The enzyme used is DPP-IV from pig kidney (available from Sigma under reference D7052).
The reference inhibitor is Diprotin A, corresponding to the Ile-Pro-Ile tripeptide (available from Sigma under reference 19759).

Protein sequences, listed by entry. Tags and fused reporters are not part of them. Lines headed by an entry give the natural chain unless they say otherwise; changes in a name come on top.
UniProt P22411: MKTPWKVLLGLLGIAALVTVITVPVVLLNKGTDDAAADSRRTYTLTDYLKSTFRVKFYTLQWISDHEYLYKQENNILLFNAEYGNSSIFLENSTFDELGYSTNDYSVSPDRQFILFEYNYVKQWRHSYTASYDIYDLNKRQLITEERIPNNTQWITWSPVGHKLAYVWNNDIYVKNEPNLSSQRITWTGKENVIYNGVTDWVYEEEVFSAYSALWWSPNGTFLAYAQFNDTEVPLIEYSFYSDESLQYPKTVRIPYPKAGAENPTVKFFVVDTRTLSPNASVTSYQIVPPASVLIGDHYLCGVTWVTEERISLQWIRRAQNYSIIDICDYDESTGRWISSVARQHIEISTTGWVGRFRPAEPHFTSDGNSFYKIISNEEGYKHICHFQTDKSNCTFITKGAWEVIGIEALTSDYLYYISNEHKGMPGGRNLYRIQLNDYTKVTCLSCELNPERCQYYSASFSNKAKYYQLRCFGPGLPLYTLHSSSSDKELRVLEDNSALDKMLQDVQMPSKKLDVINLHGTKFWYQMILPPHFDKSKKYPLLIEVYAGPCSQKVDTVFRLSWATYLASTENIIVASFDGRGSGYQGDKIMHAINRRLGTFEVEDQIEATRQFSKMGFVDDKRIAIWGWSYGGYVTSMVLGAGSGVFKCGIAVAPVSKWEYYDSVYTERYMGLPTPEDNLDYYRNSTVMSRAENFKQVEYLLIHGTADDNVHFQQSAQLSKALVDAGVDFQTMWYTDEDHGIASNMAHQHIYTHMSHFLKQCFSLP

Compound `CC[C@H](C)[C@H](N)C(=O)N1CCC[C@H]1C(=O)N[C@H](C(=O)O)[C@@H](C)CC` [Diprotin A (IPI), Ile-Pro-Ile, reference compound] has an IC50 of 12.1 ± 0.2 µM.

— US10500245B2, “Compositions for preventing and/or treating pathological conditions associated with alpha-glucosidase” (UNIVERSITE DE LA ROCHELLE, priority 2014, dated 2019)
